Assay: activity coefficient (dimensionless); of the first substance listed, at infinite dilution; xn = mol fraction of the nth substance listed
Details: 101 kPa, Liquid, Chromatography, x1 = 0

CCCCOCCCC [dibutyl ether] + C[N+]1(CCCO)CCOCC1.O=S(=O)([N-]S(=O)(=O)C(F)(F)F)C(F)(F)F
Details | activity coefficient
318.15 K | 56.8
328.15 K | 53.8
338.15 K | 50.9
348.15 K | 48.5
358.15 K | 46.3
368.15 K | 44.3
